TbMetRS inhib = T. brucei MetRS inhibitors, primary screen, biochemical, luminescence; 0.4% of 360,000 active; purified T. brucei MetRS, ATP depletion, Kinase-Glo luminescence; inhibition, % at 11.9 µM; AID 624268, 2012;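 active = inhibition above a per-plate cutoff of the control wells' mean inhibition plus 3 SD, cut at about 5.5% in these data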;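 note: 0% = DMSO wells median and 100% = median of wells with control inhibitor compound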
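Dosing: 11.9 µM compound single dose, 0.9% DMSO; Assay system: purified T. brucei MetRS enzyme; Measured by: Kinase-Glo luciferase luminescence reporting remaining unconsumed ATP; Schedule: 15 min plus 2 h at 25 °C.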
Pemphigus Ab inh = inhibitors of pemphigus antibody binding to DSG3, primary screen, biochemical, bead-based, flow cytometry, scFv-GFP; Desmoglein-3 (Homo sapiens), P32926; DSG3-coupled beads, scFv-anti-DSG3-GFP binding; active compounds read low; binding (percent of control), % at 10 µM; 0.48% of 310,000 active;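 active = binding more than 3 SD below its plate's average and above zero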;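 note: hits lower antibody fragment binding to DSG3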
Rce1 inhib = yeast Rce1p protease inhibitors, primary screen, biochemical, fluorescence, cell-free homogeneous | calls only | 0.27% of 290,000 active | CAAX prenyl protease 2 (Saccharomyces cerevisiae (strain ATCC 204508 / S288c)), Q03530 | yeast membranes, quenched prenylated peptide cleavage fluorescence;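 active = fall in fluorescence gain of 50% or more versus controls, with final raw signal at or below 3038400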;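 note: plate controls were neutral control wells for no effect and wells lacking membranes for full effect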
Arr AP2 block = inhibitors of beta-arrestin/AP2 binding, primary screen, biochemical, GPCR trafficking, flow cytometry. beta-arrestin 1 C-terminal peptide binding to AP2 beta2-adaptin appendage (human). FITC-arrestin peptide / GST-AP2 beads; AP2 beta2 appendage carries R879A mutation. inhibition, % at 10 µM. 0.31% of 340,000 active. AID 504490, 2011;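 active = inhibition above a set limit, near 3 SD of compounds lacking own fluorescence, cut at about 54% in these data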;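 note: plate controls were DMSO wells for no effect and 5 µM unlabelled arrestin peptide for full effect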
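System: GST-AP2 R879A glutathione beads. Medium: PBS with 0.05% Tween 20 and 0.1% BSA. Also added: FITC-arrestin peptide, 50 nM. Incubation: 12 min plus 1 h, RT. Measured by: high-throughput flow cytometry of beads, ex 488, em 535 nm. Evaluation: percent drop in bead-associated FITC signal.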
Yeast UUG start = modulators of yeast start codon fidelity, primary screen, whole organism, S. cerevisiae, single point, plate reader; S. cerevisiae UUG-firefly luciferase reporter, luminescence/redox ratio; activity score, % at 18.7 µM; 0.13% of 350,000 active; AID 602363, 2012;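 active = replicate mean at a twofold rise or more, about +100% in these data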;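 also: firefly luciferase made from a UUG start codon reports start codon fidelity; reporter light over untreated wells divided by growth signal over untreated wells; some hits fall short of that in this replicate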
Active calls of the source: *; i = inactive; nt = not tested or not shown; + = active, no number. Only some compounds are listed: those with a hit (about 1.2% of all), similar ones and a draw of the others.

By UniProt entry, the sequences of proteins in these tests, tags left out.
Desmoglein-3 (Homo sapiens), P32926, UniProt P32926, whole entry, looked up: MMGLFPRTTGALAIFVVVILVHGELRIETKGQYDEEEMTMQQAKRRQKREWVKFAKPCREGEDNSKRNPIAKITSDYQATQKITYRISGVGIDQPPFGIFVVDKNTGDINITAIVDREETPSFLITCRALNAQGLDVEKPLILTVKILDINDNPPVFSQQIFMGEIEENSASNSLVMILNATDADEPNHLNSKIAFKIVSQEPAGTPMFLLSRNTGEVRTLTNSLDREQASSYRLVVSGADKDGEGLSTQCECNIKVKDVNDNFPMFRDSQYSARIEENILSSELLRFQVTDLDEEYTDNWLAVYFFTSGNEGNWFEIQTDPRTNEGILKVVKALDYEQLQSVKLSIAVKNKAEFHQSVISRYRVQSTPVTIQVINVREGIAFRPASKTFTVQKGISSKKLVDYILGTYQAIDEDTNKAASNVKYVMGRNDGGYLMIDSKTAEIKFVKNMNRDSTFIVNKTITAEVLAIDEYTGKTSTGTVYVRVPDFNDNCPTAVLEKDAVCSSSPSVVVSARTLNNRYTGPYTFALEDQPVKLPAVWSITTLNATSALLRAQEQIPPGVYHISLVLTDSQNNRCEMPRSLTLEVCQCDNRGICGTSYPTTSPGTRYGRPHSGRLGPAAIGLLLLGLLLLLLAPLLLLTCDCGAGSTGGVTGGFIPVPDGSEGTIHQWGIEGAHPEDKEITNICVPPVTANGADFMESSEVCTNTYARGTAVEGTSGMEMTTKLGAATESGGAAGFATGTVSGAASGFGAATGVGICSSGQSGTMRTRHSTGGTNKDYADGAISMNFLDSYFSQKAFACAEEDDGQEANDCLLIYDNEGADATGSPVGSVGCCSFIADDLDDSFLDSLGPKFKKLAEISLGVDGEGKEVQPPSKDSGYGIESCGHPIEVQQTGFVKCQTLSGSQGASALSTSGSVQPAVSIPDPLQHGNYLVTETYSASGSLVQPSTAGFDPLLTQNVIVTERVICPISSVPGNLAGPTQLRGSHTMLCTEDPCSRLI

Yeast UUG start,Arr AP2 block,Rce1 inhib,Pemphigus Ab inh,TbMetRS inhib,smiles
-16,-4,+,99,0,CCOC(=O)c1cc2c(=O)[nH]ccc2nc1C
-5,33,i,51*,1,Nc1ccc(N)c(C(=O)O)c1
1,6,i,119,0,Nc1ccc(C(=O)O)c(O)c1
-4,nt,nt,nt,nt,O=S(=O)(N[C@H]1CC[C@@H](CCn2cc(-c3cccc(F)c3)nn2)O[C@H]1CO)c1ccc(Cl)cc1
-5,6,+,98,-1,COc1c2ccoc2nc2c(OC)cccc12
-3,nt,nt,nt,nt,O=C(C[C@@H]1C[C@@H]2c3cc(NC(=O)Nc4ccccc4F)ccc3O[C@@H]2[C@H](CO)O1)NCC(F)(F)F
11,nt,nt,nt,nt,C[C@H](CO)N1C[C@H](C)[C@@H](CN(C)C(=O)Nc2ccc3c(c2)OCO3)Oc2c(NS(=O)(=O)c3cccs3)cccc2C1=O
nt,nt,i,nt,nt,Cc1ccc(S(=O)(=O)N2CCN(CC(=O)N/N=C/c3ccccc3OCC(=O)O)CC2)cc1
nt,-12,+,97,0,COc1ccccc1/C=C/C=N/NC(=O)CN1CCN(S(=O)(=O)c2ccc(C)cc2)CC1
nt,nt,i,nt,nt,CCOc1ccccc1C(=O)Nc1cc(C(=O)NCC(C)C)ccc1Cl
-9,6,i,79*,0,CCOc1ccccc1C(=O)Nc1cc(C(=O)NCCc2ccccc2)ccc1Cl
-14,8,+,102,-1,O=C(O)CCC(=O)Nc1nc2nc(-c3ccccc3)cc(-c3ccccc3)n2n1
nt,-4,i,78*,0,COc1ccccc1NS(=O)(=O)c1cccc(NC(=O)c2cc3ccccc3oc2=O)c1
-18,3,i,105,0,CCOC(=O)c1c(C)nc2sc(C(N)=O)c(N)c2c1-c1ccccc1
-14,5,i,88*,0,CCOC(=O)c1c(C)nc2sc(C(=O)Nc3ccccc3)c(N)c2c1-c1ccc(OC)cc1
nt,6,i,94,0,Clc1ccc(-c2cn3cc(Cl)ccc3n2)cc1
nt,0,+,99,-1,Oc1ccc(-c2cn3cc(C(F)(F)F)ccc3n2)cc1
nt,1,nt,87*,0,CCC(=O)Oc1ccc(C(=O)Nc2cccc(C(=O)NC(C)(C)C)c2)cc1
1,nt,nt,nt,nt,Cc1noc(C)c1NC(=O)N(C)C[C@H]1Oc2ccc(NC(=O)Nc3cccc4ccccc34)cc2C(=O)N([C@@H](C)CO)C[C@@H]1C
-11,6,i,88*,2,CS(=O)(=O)c1ccc2nc(NC(=O)Nc3ccccc3F)sc2c1

Continued; it opens with the 3 that closed the last part.
Yeast UUG start,Arr AP2 block,Rce1 inhib,Pemphigus Ab inh,TbMetRS inhib,smiles
nt,1,nt,87*,0,CCC(=O)Oc1ccc(C(=O)Nc2cccc(C(=O)NC(C)(C)C)c2)cc1
1,nt,nt,nt,nt,Cc1noc(C)c1NC(=O)N(C)C[C@H]1Oc2ccc(NC(=O)Nc3cccc4ccccc34)cc2C(=O)N([C@@H](C)CO)C[C@@H]1C
-11,6,i,88*,2,CS(=O)(=O)c1ccc2nc(NC(=O)Nc3ccccc3F)sc2c1
-28,-19,i,104,0,CS(=O)(=O)c1ccc2nc(NC(=O)c3ccccc3)sc2c1
-2,nt,nt,nt,nt,CCCC(=O)Nc1ccc2c(c1)C(=O)N(C)C[C@@H](OC)[C@H](C)CN(Cc1ccc(-c3ccccn3)cc1)[C@H](C)CO2
-3,16,i,77*,-3,CS(=O)(=O)N1CCc2cc(S(=O)(=O)NCCNS(=O)(=O)c3ccc4c(c3)CCN4S(C)(=O)=O)ccc21
-26,55*,nt,108,-1,CCN(CC)c1ccc(NC2=C(Cl)C(=O)c3ccccc3C2=O)cc1
-25,13,i,91,0,Cc1ccc(NC2=C(Cl)C(=O)c3ccccc3C2=O)cc1
31,nt,nt,nt,nt,C[C@@H]1CCCCO[C@@H](CN(C)CC2CC2)[C@@H](C)CN([C@H](C)CO)C(=O)c2cc(NC(=O)Nc3ccc(C(F)(F)F)cc3)ccc2O1
nt,1,i,79*,-2,CCOc1ncccc1C(=O)NCCN1C(=O)S/C(=C/c2cccs2)C1=O
nt,7,nt,83*,0,O=C(O)C1Nc2c(O)cccc2C2C=CCC12 (stereo not given)
nt,12,i,74*,0,O=C(O)c1cc(-n2nnnc2SCc2ccccc2F)ccc1Cl
-15,6,+,98,0,CC1CCN(C(=O)C2CCN(S(=O)(=O)c3ccc(-n4cnnn4)cc3)CC2)CC1
nt,-1,i,83*,-1,Cc1ccc(C)n1NC(=O)c1cccs1
-12,-1,i,102,0,Cc1ccc(C)n1NC(=O)c1ccccc1
-9,7,i,86*,-1,CCOC(=O)c1c[nH]c2c(Cl)c(Cl)ccc2c1=O
-3,nt,nt,nt,nt,O=C(CCN1CCCCC1)NCC[C@H]1CC[C@H](NS(=O)(=O)c2cccc(F)c2)[C@H](CO)O1
0,10,+,100,0,O=C(CC1(O)C(=O)N(C/C=C/c2ccccc2)c2ccccc21)c1ccccn1 (stereo not given)
-6,nt,nt,nt,nt,COCC(=O)N(C)C[C@@H]1Oc2ncc(C#Cc3ccccc3)cc2C(=O)N([C@@H](C)CO)C[C@@H]1C
-20,14,nt,102,7.6*,O=C(CSc1ccc(C(F)(F)F)cc1[N+](=O)[O-])Nc1ccccc1
nt,22,i,78,-2,CC(=O)Nc1ccc(NC(=O)CSc2ccc(C(F)(F)F)cc2[N+](=O)[O-])cc1
-1,nt,nt,nt,nt,C[C@H]1CN([C@@H](C)CO)S(=O)(=O)c2ccc(C#CC3CCCC3)cc2O[C@@H]1CN(C)Cc1cccnc1
-22,2,i,98,0,COc1ccc(N(C(=O)C2COc3ccccc3O2)C(C(=O)NC2CCCCC2)c2ccccc2)cc1OC (stereo not given)

Structures listed so far that contain an aryl thioether with sulfur outside any ring, in the order listed:
Yeast UUG start,Arr AP2 block,Rce1 inhib,Pemphigus Ab inh,TbMetRS inhib,smiles
nt,12,i,74*,0,O=C(O)c1cc(-n2nnnc2SCc2ccccc2F)ccc1Cl
-20,14,nt,102,7.6*,O=C(CSc1ccc(C(F)(F)F)cc1[N+](=O)[O-])Nc1ccccc1
nt,22,i,78,-2,CC(=O)Nc1ccc(NC(=O)CSc2ccc(C(F)(F)F)cc2[N+](=O)[O-])cc1

(continued)
Yeast UUG start,Arr AP2 block,Rce1 inhib,Pemphigus Ab inh,TbMetRS inhib,smiles
-9,7,i,76*,-1,COc1cc(OC)cc(N(C(=O)C2COc3ccccc3O2)C(C(=O)NC2CCCCC2)c2ccc(O)cc2)c1 (stereo not given)
nt,3,nt,70*,0,CN(C)CCCn1c2c3ccccc3ccc2c2oc(=O)c3ccccc3c21
nt,-25,nt,28*,0,COCc1ccc(C(=O)Nc2cccc(S(=O)(=O)N(C)c3ccccc3)c2)cc1
nt,2,+,94,0,COc1cc(-c2nc3ccccn3c2/N=C/c2cccc(OC)c2O)ccc1O
-6,nt,nt,nt,nt,C[C@H]1C=C(C(=O)N2CCN(Cc3ccccc3)CC2)O[C@@H](OCc2ccc(CO)cc2)C1
-1,4,+,99,-1,O=C(C1=C[C@@H](C2CC2)C[C@@H](OCc2ccc(CO)cc2)O1)N1CCN(Cc2ccccc2)CC1
-10,-7,+,100,0,CC(=O)N1c2ccc([N+](=O)[O-])cc2NC(=O)CC1C (stereo not given)
-5,nt,nt,nt,nt,COc1ccc(CNC(=O)C[C@@H]2C[C@@H]3c4cc(NC(=O)CN(C)C)ccc4O[C@@H]3[C@@H](CO)O2)cc1
-16,5,i,82*,0,CCc1nn(CC(=O)NCCc2ccc(S(N)(=O)=O)cc2)c(=O)c2cc3sccc3n12
-4,-4,i,-12*,-1,COc1ccc(N2CCN(S(=O)(=O)CCNC(=O)c3cc(=O)c4ccccc4o3)CC2)cc1

High-throughput results: PubChem, several laboratories
